We go through 10 compounds from PubChem BioAssay AID1665 (Sanford-Burnham Center for Chemical Genomics, 2009).

This is a selection; strong and weak results do not stand in their true shares. Some results for these compounds are left out of this collection, so the calls shown say nothing about other tests. Active and inactive are the calls of the source.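 How the source made its calls: active means nuclear translocation activity above 50% at 5 µM, with a well cell count of 50 or more; inconclusive means wells under 50 cells across six images, flagged as toxic; inactive means the rest.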

This experiment is described as follows: beta-catenin nuclear localization change in HeLa – imaging, HeLa cells, immunofluorescence, high-content, primary screen (AID 1665).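 Further: per-cell ratio of nuclear to cytoplasmic median beta-catenin stain intensity; plate controls were DMSO negative control for no effect and GSK-3 inhibitor IX positive control for full effect.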 To be noted: at 5 µM, active compounds read high. In a few lines:
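Test system: human HeLa cell line; Doses: 5 µM primary, 0.02–20 µM confirmation; Incubation: 24 h compound exposure, 37°C; Detection: beta-catenin immunofluorescence imaging with DAPI; Read-out: beta-catenin nuclear/cytoplasmic ratio, % activation.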
In the case of `COc1cccc(C(=O)NCC2(N3CCCCC3)CCCCC2)c1`, the nuclear translocation activity is inactive: -1.3%.

With `COc1ccc(Br)c(C(=O)NCC2(N3CCCCC3)CCCCC2)c1`, the nuclear translocation activity was inactive: -0.2%.

With `CN(C)c1cccc(C(=O)NCC2(N(C)C)CCCCC2)c1`, the nuclear translocation activity was inactive: -6.3%.

Take `O=C(NCC1(N2CCCCC2)CCCCC1)c1cc([N+](=O)[O-])ccc1Cl`: the nuclear translocation activity was inactive: 0.9%.

Turning to `CCN(CC)CC(C)C(C)OC(=O)C(O)(c1ccccc1)c1ccccc1` (stereo not given), the nuclear translocation activity is inactive: -0.2%.

As to `CC(C)N1C(=O)CC2(CCN(CCOC(=O)C(O)(c3ccccc3)c3ccccc3)CC2)C1=O`, the nuclear translocation activity is inactive: -3.2%.

With `Cc1ccccc1C(=O)NCC1(N2CCCCC2)CCCCC1`, the nuclear translocation activity was inactive: -3.2%.

On to `CN(C)C1CCCC1OC(=O)C(O)(c1ccccc1)c1ccccc1` (stereo not given), for which the nuclear translocation activity is inactive: 4.3%.

In the case of `C=CCN1CCN(CCOC(=O)C(O)(c2ccccc2)c2ccccc2)CC1`, the nuclear translocation activity was inactive: 0.8%.

As to `CCN1CCCC(OC(=O)C2(O)c3ccccc3C=Cc3ccccc32)C1` (stereo not given), the nuclear translocation activity is inactive: -0.5%.
